SMILES strings stand for the structures.

A word on the AUC: it is the area under the concentration-time curve, a measure of exposure. As usually defined, the IC50 is the concentration that inhibits the measured activity by half. A lower IC50 goes with greater potency in that assay.

Tested on in the first data set: not listed separately
Kind of data set: Area under the curve determination of plasma levels in rats (rrAUC). The data set is classed as in vivo. Conditions: rat, oral 10 mg/kg, plasma 0.5-6 h; read-out: RR AUC (nM · h), rapid rat AUC (rrAUC). As to the method:
Area under the Curve Determinations of Plasma Levels in Rats (rrAUC)
To gain insight into the pharmacokinetic properties of the compounds of the invention, plasma levels of the compounds in rats were determined according to the protocol described in Korfmacher, W. A.; Cox, K. A.; Ng, K. J.; Veals, J.; Hsieh, Y.; Wainhaus, S.; Broske, L.; Prelusky, D.; Nomeir, A.; White, R. E. Rapid Commun. Mass Spectrom. 2001, 15, 335. Briefly, rats, after an overnight fast, were dosed orally with the test compound at a dose of 10 mg/kg in a 5 mL/kg dose volume. Blood was collected at 0.5, 1, 2, 3, 4, and 6 h post-dosing. Mass spectrometry using high performance liquid chromatography was used to identify and measure the concentrations of the test compounds in the plasma at the various time points. The parent ion of each test compound was used to identify and quantitate the compounds in plasma.
Consider `COc1ccc2c(c1)C(=O)N(C[C@@]1(C#Cc3ccc4c(c3)CCC43NC(=O)NC3=O)NC(=O)NC1=O)C2` (some centres unmarked) [Compound 2315], for which the AUC was determined as 0.673 µM·h.

Another data set concerns TNF-α production in LPS-stimulated human whole blood. Nature of the data set: Inhibition of TNF-α production from human whole blood (hWBA). The data set is classed as cell-based. Conditions: Homo sapiens, IC50 for TNF-α production.
`COc1ccc2c(c1)C(=O)N(C[C@@]1(C#Cc3ccc([C@H]4CCC(=O)N4)cc3)NC(=O)NC1=O)C2` [Compound 2259] showed an IC50 of 0.736 µM. On the same count and under the same terms, next, `COc1ccc2c(c1)C(=O)N(CC1(C#Cc3ccc(N/C(=N\C#N)NC4CC4)cc3)NC(=O)NC1=O)C2` (centres unmarked) [Compound 2297]: 0.268 µM; `COc1ccc2c(c1)C(=O)N(C[C@@]1(C#Cc3ccc(N/C(N)=N\C#N)cc3)NC(=O)NC1=O)C2` [Compound 2275]: 0.15 µM; `COc1ccc2c(c1)C(=O)N(C[C@]1(C#Cc3ccnc(SC)n3)NC(=O)NC1=O)C2` [Compound 2250]: 10 µM. The same measure, in the same setting: to `CCC1(c2ccc(C#CC3(CN4Cc5ccc(OC)cc5C4=O)NC(=O)NC3=O)cc2)NC(=O)NC1=O` (centres unmarked) [Compound 2279] belongs 0.225 µM. On the same count and under the same terms, next, `COc1ccc2c(c1)C(=O)N(C[C@@]1(C#Cc3ccc4c(c3)CC[C@@]43NC(=O)NC3=O)NC(=O)NC1=O)C2` [Compound 2314]: 0.281 µM; `COc1ccc2c(c1)C(=O)N(C[C@@]1(C#Cc3ccc4c(c3)CCC43NC(=O)NC3=O)NC(=O)NC1=O)C2` (some centres unmarked) [Compound 2315]: 0.151 µM. The molecule `COc1ccc2c(c1)C(=O)N(C[C@@]1(C#Cc3ccc(-c4cnn(C)c4)nc3)NC(=O)NC1=O)C2` [Compound 2269] showed an IC50 of 1.03 µM. On to `COc1ccc2c(c1)C(=O)N(C[C@@]1(C#Cc3ccc4c(c3)CC[C@]43NC(=O)NC3=O)NC(=O)NC1=O)C2` [Compound 2313], for which the IC50 amounted to 0.186 µM.

Consider `COc1ccc2c(c1)C(=O)N(C[C@@]1(C#Cc3ccc(F)c(C(O)(O)C(F)(F)F)c3)NC(=O)NC1=O)C2` [Compound 2251], for which it took 1.18 µM to reach half-maximal inhibition (IC50). The molecule `CON=C(c1ccc(C#C[C@]2(CN3Cc4ccc(OC)cc4C3=O)NC(=O)NC2=O)cc1)N1CCOCC1` [Compound 932] returned an IC50 of 1.24 µM. Still for that read-out and setting: next, `COc1ccc2c(c1)C(=O)N(C[C@@]1(C#Cc3ccc(C4(C)NC(=O)NC4=O)nc3)NC(=O)NC1=O)C2` (some centres unmarked) [Compound 2280]: 0.544 µM.

The same data set, now with this note: Homo sapiens, IC50 for inhibition of TNF-α production.
Take `COc1ccc2c(c1)C(=O)N(C[C@@]1(C#Cc3nc(N4C[C@H](O)CC4=O)ccc3OC)NC(=O)NC1=O)C2` [Compound 1503]: the midpoint of inhibition, the IC50, lay at 1.13 µM.

Regarding `COc1ccc2c(c1)C(=O)N(C[C@@]1(C#Cc3nc(N4C[C@@H](O)CC4=O)ccc3OC)NC(=O)NC1=O)C2` [Compound 1500], the midpoint of inhibition, the IC50, lay at 0.837 µM. In the case of `COc1ccc2c(c1)C(=O)N(C[C@@]1(C#Cc3ccnc(SC)n3)NC(=O)NC1=O)C2` [Compound 2249], the IC50 was 3.04 µM. The molecule `COc1ccc2c(c1)C(=O)N(C[C@@]1(C#Cc3nc(N4C(=O)CC[C@H]4CO)ccc3OC)NC(=O)NC1=O)C2` [Compound 1502] came in with an IC50 of 1.54 µM.

The molecule `COc1ccc2c(c1)C(=O)N(C[C@@]1(C#Cc3ccc4c(N)n[nH]c4c3)NC(=O)NC1=O)C2` [Compound 2236] gave an IC50 of 0.31 µM.

With `COc1ccc2c(c1)C(=O)N(C[C@@]1(C#Cc3ccc([C@@]4(CN)NC(=O)NC4=O)cc3)NC(=O)NC1=O)C2` [Compound 2218], 0.122 µM corresponded to half-maximal inhibition (IC50). `COc1ccc2c(c1)C(=O)N(C[C@@]1(C#Cc3ccc(C4CCN(C)CC4)nc3)NC(=O)NC1=O)C2` [Compound 745] returned a half-maximal inhibitory concentration (IC50) of 0.245 µM. In turn, `COc1ccc2c(c1)C(=O)N(C[C@@]1(C#Cc3ccc(N4C(=O)CCC4C(=O)NC4CC4)cc3)NC(=O)NC1=O)C2` (some centres unmarked) [Compound 1902] gave an IC50 of 0.127 µM. The same measure, in the same setting: to `COc1ccc2c(c1F)C(=O)N(C[C@@]1(C#Cc3ccc(C4(C)NC(=O)NC4=O)c(F)c3)NC(=O)NC1=O)C2` (some centres unmarked) [Compound 1302] belongs 0.148 µM; to `COc1ccc2c(c1)C(=O)N(C[C@@]1(C#Cc3ccc(-c4nc(-c5cnn(C)c5)ccc4OC(=O)C(C)C)cc3)NC(=O)NC1=O)C2` [Compound 989], 0.048 µM; to `COc1ccc2c(c1F)C(=O)N(C[C@@]1(C#Cc3ccc(C4(O)CCNCC4)cc3)NC(=O)NC1=O)C2` [Compound 1701], 0.137 µM.

In turn, `COc1ccc2c(c1)C(=O)N(C[C@@]1(C#Cc3cc(Cl)cnc3N)NC(=O)NC1=O)C2` [Compound 2248] displayed an IC50 of 10 µM. In turn, `COc1ccc2c(c1)C(=O)N(C[C@@]1(C#Cc3ccc(C4(O)CCNCC4)cc3)NC(=O)NC1=O)C2` [Compound 1700] returned an IC50 of 2.39 µM. With `COc1ccc2c(c1)C(=O)N(C[C@@]1(C#Cc3cncc(NS(C)(=O)=O)c3)NC(=O)NC1=O)C2` [Compound 2240], the IC50 came out at 0.386 µM. Molecule `COc1ccc2c(c1)C(=O)N(C[C@@]1(C#Cc3ccc(C(N)C(F)(F)F)cc3)NC(=O)NC1=O)C2` (some centres unmarked) [Compound 300] came in with an IC50 of 1.09 µM. Take `COc1ccc2c(c1)C(=O)N(C[C@@]1(C#Cc3ccc4c(c3)c(N)nn4C)NC(=O)NC1=O)C2` [Compound 746]: half-maximal inhibition (IC50) required 2.9 µM. Molecule `CCC(=O)Oc1ccc(-c2cnn(C)c2)nc1-c1ccc(C#C[C@]2(CN3Cc4ccc(OC)cc4C3=O)NC(=O)NC2=O)cc1` [Compound 988] registered an IC50 of 0.0559 µM. `COc1ccc2c(c1)C(=O)N(C[C@@]1(C#Cc3cncc(-c4ccc(N)nc4)c3)NC(=O)NC1=O)C2` [Compound 2206] registered an IC50 of 0.513 µM. `COc1ccc2c(c1)C(=O)N(C[C@@]1(C#Cc3cncc(NS(=O)(=O)C(C)C)c3)NC(=O)NC1=O)C2` [Compound 2241] had an IC50 of 1 µM.

With `COc1ccc2c(c1)C(=O)N(C[C@@]1(C#Cc3ccc4c(N)nn(C)c4c3)NC(=O)NC1=O)C2` [Compound 718], inhibition was half-maximal at 1.11 µM (IC50). Turning to `COc1ccc2c(c1)C(=O)N(C[C@@]1(C#Cc3ccc(-c4cc(N)n(C)n4)cc3)NC(=O)NC1=O)C2` [Compound 709], the IC50 came to 0.223 µM. Take `COc1ccc2c(c1)C(=O)N(C[C@@]1(C#Cc3nc(-c4cncc(C#N)c4)ccc3OC)NC(=O)NC1=O)C2` [Compound 1513]: half-maximal inhibition (IC50) was put at 1.79 µM. On the same count and under the same terms, to `COc1ccc2c(c1)C(=O)N(C[C@@]1(C#Cc3ccc4c(c3)CN(C)C(=O)N4)NC(=O)NC1=O)C2` [Compound 306] belongs 0.507 µM; to `COc1ccc2c(c1)C(=O)N(C[C@@]1(C#Cc3ccc(C4(CN)NC(=O)NC4=O)cc3)NC(=O)NC1=O)C2` (some centres unmarked) [Compound 2215], 0.229 µM; to `COc1ccc2c(c1F)C(=O)N(C[C@@]1(C#Cc3cncc(F)c3)NC(=O)NC1=O)C2` [Compound 1310], 0.305 µM. Still for that read-out and setting: to `CCN1CCN(c2n[nH]c3cc(C#C[C@]4(CN5Cc6ccc(OC)cc6C5=O)NC(=O)NC4=O)ccc23)CC1` [Compound 2239] belongs 0.188 µM.

Still in this data set, the particulars now being: IC50 for inhibition of TNF-α production.
As to `O=C1NC(=O)[C@](C#Cc2cccnc2)(CN2Cc3ccc(I)cc3C2=O)N1` [Compound 309], the IC50 came to 0.977 µM. For the molecule `O=C1NC(=O)[C@](C#Cc2cccnc2)(CN2Cc3ccc(I)cc3C2=O)N1` [Compound 308], the IC50 stood at 100 µM.

(Values after US8541572B2.)
